# Measured values from PubChem BioAssay (NCI).
# Some results for these compounds are left out of this collection, so the calls shown say nothing about other tests.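 Briefly, cells in 96-well plates were exposed to five compound concentrations for 48 h, and endpoints were estimated by linear interpolation. GI50: concentration for 50% inhibition of growth. TGI: concentration producing complete growth inhibition.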
# How the values were obtained:
# Test in all cases: NCI tumour cell line growth inhibition, 48 h
# HOP-92 NSCLC = tested on: HOP-92 NSCLC
# IGROV1 ovarian = tested on: IGROV1 ovarian
# LOX IMVI melanoma = tested on: LOX IMVI melanoma
# SK-MEL-2 melanoma = tested on: SK-MEL-2 melanoma
# A498 renal = tested on: A498 renal
# NCI-H23 lung = tested on: NCI-H23 lung
# NCI-H226 lung = tested on: NCI-H226 lung
# SNB-78 CNS = tested on: SNB-78 CNS
# MALME-3M melanoma = tested on: MALME-3M melanoma
# HCC-2998 colon = tested on: HCC-2998 colon
# HOP-18 NSCLC = tested on: HOP-18 NSCLC
# M19-MEL melanoma = tested on: M19-MEL melanoma
# DMS 114 small cell lung = tested on: DMS 114 small cell lung
# CCRF-CEM leukemia = tested on: CCRF-CEM leukemia
# NCI-H322M lung = tested on: NCI-H322M lung
# RXF 393 renal = tested on: RXF 393 renal
# KM12 colon = tested on: KM12 colon
# SW-620 colon = tested on: SW-620 colon
# 786-0 renal = tested on: 786-0 renal
# HOP-62 NSCLC = tested on: HOP-62 NSCLC
# SK-MEL-28 melanoma = tested on: SK-MEL-28 melanoma
# UO-31 renal = tested on: UO-31 renal
# COLO 205 colon = tested on: COLO 205 colon
# TK-10 renal = tested on: TK-10 renal
# OVCAR-5 ovarian = tested on: OVCAR-5 ovarian
# K-562 leukemia = tested on: K-562 leukemia
# LXFL 529 NSCLC = tested on: LXFL 529 NSCLC
# M14 melanoma = tested on: M14 melanoma
# SR leukemia = tested on: SR leukemia
# ACHN renal = tested on: ACHN renal
# DLD-1 colon = tested on: DLD-1 colon
# HCT-15 colon = tested on: HCT-15 colon
# KM20L2 colon = tested on: KM20L2 colon
# XF 498 CNS = tested on: XF 498 CNS
# SF-539 CNS = tested on: SF-539 CNS
# A549 NSCLC = tested on: A549 NSCLC
# SN12C renal = tested on: SN12C renal
# DMS 273 small cell lung = tested on: DMS 273 small cell lung
# MOLT-4 leukemia = tested on: MOLT-4 leukemia
# SF-295 CNS = tested on: SF-295 CNS
# OVCAR-8 ovarian = tested on: OVCAR-8 ovarian
# SNB-19 CNS = tested on: SNB-19 CNS
# SF-268 CNS = tested on: SF-268 CNS
# EKVX NSCLC = tested on: EKVX NSCLC
# HCT-116 colon = tested on: HCT-116 colon
# U251 CNS = tested on: U251 CNS
# SK-OV-3 ovarian = tested on: SK-OV-3 ovarian
# OVCAR-4 ovarian = tested on: OVCAR-4 ovarian
# NCI-H522 lung = tested on: NCI-H522 lung
# OVCAR-3 ovarian = tested on: OVCAR-3 ovarian
# UACC-62 melanoma = tested on: UACC-62 melanoma
# HL-60(TB) leukemia = tested on: HL-60(TB) leukemia
# UACC-257 melanoma = tested on: UACC-257 melanoma
# NCI-H460 lung = tested on: NCI-H460 lung
# RPMI-8226 leukemia = tested on: RPMI-8226 leukemia
# HT29 colon = tested on: HT29 colon
smiles,measurement,setting,value
ClCCCCC(CCl)NCCCl (configuration not stated),GI50,HOP-92 NSCLC,> 100 µM
same,TGI,HOP-92 NSCLC,> 100 µM
same,GI50,IGROV1 ovarian,> 100 µM
same,TGI,IGROV1 ovarian,> 100 µM
same,GI50,LOX IMVI melanoma,57.5 µM
same,TGI,LOX IMVI melanoma,> 100 µM
same,GI50,SK-MEL-2 melanoma,> 100 µM
same,TGI,SK-MEL-2 melanoma,> 100 µM
same,GI50,A498 renal,> 100 µM
same,TGI,A498 renal,> 100 µM
same,GI50,NCI-H23 lung,29.4 µM
same,TGI,NCI-H23 lung,> 100 µM
same,GI50,NCI-H226 lung,44.4 µM
same,TGI,NCI-H226 lung,> 100 µM
same,GI50,SNB-78 CNS,> 100 µM
same,TGI,SNB-78 CNS,> 100 µM
same,GI50,MALME-3M melanoma,> 100 µM
same,TGI,MALME-3M melanoma,> 100 µM
same,GI50,HCC-2998 colon,> 100 µM
same,TGI,HCC-2998 colon,> 100 µM
same,GI50,HOP-18 NSCLC,> 100 µM
same,TGI,HOP-18 NSCLC,> 100 µM
same,GI50,M19-MEL melanoma,> 100 µM
same,TGI,M19-MEL melanoma,> 100 µM
same,GI50,DMS 114 small cell lung,50.7 µM
same,TGI,DMS 114 small cell lung,> 100 µM
same,GI50,CCRF-CEM leukemia,8.84 µM
same,TGI,CCRF-CEM leukemia,> 100 µM
same,GI50,NCI-H322M lung,> 100 µM
same,TGI,NCI-H322M lung,> 100 µM
same,GI50,RXF 393 renal,72.1 µM
same,TGI,RXF 393 renal,> 100 µM
same,GI50,KM12 colon,> 100 µM
same,TGI,KM12 colon,> 100 µM
same,GI50,SW-620 colon,> 100 µM
same,TGI,SW-620 colon,> 100 µM
same,GI50,786-0 renal,41.3 µM
same,TGI,786-0 renal,> 100 µM
same,GI50,HOP-62 NSCLC,63.1 µM
same,TGI,HOP-62 NSCLC,> 100 µM
same,GI50,SK-MEL-28 melanoma,> 100 µM
same,TGI,SK-MEL-28 melanoma,> 100 µM
same,GI50,UO-31 renal,> 100 µM
same,TGI,UO-31 renal,> 100 µM
same,GI50,COLO 205 colon,> 100 µM
same,TGI,COLO 205 colon,> 100 µM
same,GI50,TK-10 renal,> 100 µM
same,TGI,TK-10 renal,> 100 µM
same,GI50,OVCAR-5 ovarian,> 100 µM
same,TGI,OVCAR-5 ovarian,> 100 µM
same,GI50,K-562 leukemia,> 100 µM
same,TGI,K-562 leukemia,> 100 µM
same,GI50,LXFL 529 NSCLC,> 100 µM
same,TGI,LXFL 529 NSCLC,> 100 µM
same,GI50,M14 melanoma,> 100 µM
same,TGI,M14 melanoma,> 100 µM
same,GI50,SR leukemia,6.63 µM
same,TGI,SR leukemia,> 100 µM
same,GI50,ACHN renal,33.5 µM
same,TGI,ACHN renal,> 100 µM
same,GI50,DLD-1 colon,> 100 µM
same,TGI,DLD-1 colon,> 100 µM
same,GI50,HCT-15 colon,> 100 µM
same,TGI,HCT-15 colon,> 100 µM
same,GI50,KM20L2 colon,> 100 µM
same,TGI,KM20L2 colon,> 100 µM
same,GI50,XF 498 CNS,> 100 µM
same,TGI,XF 498 CNS,> 100 µM
same,GI50,SF-539 CNS,42.3 µM
same,TGI,SF-539 CNS,> 100 µM
same,GI50,A549 NSCLC,66.2 µM
same,TGI,A549 NSCLC,> 100 µM
same,GI50,SN12C renal,39.9 µM
same,TGI,SN12C renal,> 100 µM
same,GI50,DMS 273 small cell lung,40 µM
same,TGI,DMS 273 small cell lung,> 100 µM
same,GI50,MOLT-4 leukemia,21.4 µM
same,TGI,MOLT-4 leukemia,> 100 µM
same,GI50,SF-295 CNS,75.6 µM
same,TGI,SF-295 CNS,> 100 µM
same,GI50,OVCAR-8 ovarian,> 100 µM
same,TGI,OVCAR-8 ovarian,> 100 µM
same,GI50,SNB-19 CNS,> 100 µM
same,TGI,SNB-19 CNS,> 100 µM
same,GI50,SF-268 CNS,36.3 µM
same,TGI,SF-268 CNS,> 100 µM
same,GI50,EKVX NSCLC,> 100 µM
same,TGI,EKVX NSCLC,> 100 µM
same,GI50,HCT-116 colon,> 100 µM
same,TGI,HCT-116 colon,> 100 µM
same,GI50,U251 CNS,80.6 µM
same,TGI,U251 CNS,> 100 µM
same,GI50,SK-OV-3 ovarian,> 100 µM
same,TGI,SK-OV-3 ovarian,> 100 µM
same,GI50,OVCAR-4 ovarian,> 100 µM
same,TGI,OVCAR-4 ovarian,> 100 µM
same,GI50,NCI-H522 lung,92.1 µM
same,TGI,NCI-H522 lung,> 100 µM
same,GI50,OVCAR-3 ovarian,> 100 µM
same,TGI,OVCAR-3 ovarian,> 100 µM
same,GI50,UACC-62 melanoma,31.9 µM
same,TGI,UACC-62 melanoma,> 100 µM
same,GI50,HL-60(TB) leukemia,14.5 µM
same,TGI,HL-60(TB) leukemia,> 100 µM
same,GI50,UACC-257 melanoma,> 100 µM
same,TGI,UACC-257 melanoma,> 100 µM
same,GI50,NCI-H460 lung,25.9 µM
same,TGI,NCI-H460 lung,> 100 µM
same,GI50,RPMI-8226 leukemia,> 100 µM
same,TGI,RPMI-8226 leukemia,> 100 µM
same,GI50,HT29 colon,> 100 µM
same,TGI,HT29 colon,> 100 µM
